Target: Endothelin-1 receptor (Rattus norvegicus, UniProt P26684)
Assay: Antagonism of [125 I]ET-1 binding to the rat endothelin receptor in vascular smooth muscle VSM-A10 cells.
Assay type: cell-based

The chains behind the UniProt entries cited, without tags or fusion partners.
UniProt P26684, whole entry: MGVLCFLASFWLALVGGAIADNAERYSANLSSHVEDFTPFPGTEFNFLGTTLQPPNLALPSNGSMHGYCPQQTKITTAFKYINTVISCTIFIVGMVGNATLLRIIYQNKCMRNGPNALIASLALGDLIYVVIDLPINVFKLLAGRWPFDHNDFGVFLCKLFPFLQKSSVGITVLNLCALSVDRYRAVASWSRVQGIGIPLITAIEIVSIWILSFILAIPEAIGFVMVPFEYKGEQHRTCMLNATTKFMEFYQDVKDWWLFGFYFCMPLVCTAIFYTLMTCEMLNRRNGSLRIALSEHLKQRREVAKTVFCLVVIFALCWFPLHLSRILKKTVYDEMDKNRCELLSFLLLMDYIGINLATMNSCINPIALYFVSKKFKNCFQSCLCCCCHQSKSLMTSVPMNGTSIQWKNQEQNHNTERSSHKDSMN

IC50: 39 µM
Compound: Cc1noc(NS(=O)(=O)c2cccc3c(N=C(c4ccccc4)c4ccccc4)cccc23)c1C

Source: ChEMBL document CHEMBL1128709, “Discovery and structure-activity relationships of sulfonamide ETA-selective antagonists” (J Med Chem, 1995)
